Columns and labels:
hCA I = target: T1, hCA I (Homo sapiens, UniProt P00915); assay: stopped flow CO2 hydrase assay, hCA I; assay type: biochemical; settings: mean from three different assays
T1 construct: made in house

Protein sequences, listed by entry. Tags and fused reporters are not part of them. Lines headed by an entry give the natural chain unless they say otherwise; changes in a name come on top.
UniProt P00915: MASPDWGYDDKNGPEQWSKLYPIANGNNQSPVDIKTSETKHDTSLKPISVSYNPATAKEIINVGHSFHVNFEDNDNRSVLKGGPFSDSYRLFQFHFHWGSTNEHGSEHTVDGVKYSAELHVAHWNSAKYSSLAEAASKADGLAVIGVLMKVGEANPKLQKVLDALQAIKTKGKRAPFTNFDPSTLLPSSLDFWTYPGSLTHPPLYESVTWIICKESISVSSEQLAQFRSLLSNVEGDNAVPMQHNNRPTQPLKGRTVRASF

hCA II = target: T2, hCA II (Homo sapiens, UniProt P00918); assay: stopped flow CO2 hydrase assay, hCA II; assay type: biochemical; settings: mean from three different assays, read-out: Ki hCAII
T2 construct: made in house

Substance	Ki (hCA I) [µM]	Ki (hCA II) [µM]
3–(3-(4–(4-Oxo-1,3,4,6,7,11b-hexahydro-2H-pyrazino[2,1-a]isoquinoline-2-carbonyl) phenyl)ureido)benzenesulfonamide [Compound 31d]	0.465 ± 0.0301	0.122 ± 0.0121
4–(3-(3–(4-Oxo-1,3,4,6,7,11b-hexahydro-2H-pyrazino[2,1-a]isoquinoline-2-carbonyl) phenyl)ureido)benzenesulfonamide [Compound 31a]	0.0366 ± 0.0027	0.0067 ± 0.0006
3–(3-(3–(4-Oxo-1,3,4,6,7,11b-hexahydro-2H-pyrazino[2,1-a]isoquinoline-2-carbonyl) phenyl)ureido)benzenesulfonamide [Compound 31b]	0.0952 ± 0.0103	0.0418 ± 0.0044
4–(3-(4–(4-Oxo-1,3,4,6,7,11b-hexahydro-2H-pyrazino[2,1-a]isoquinoline-2-carbonyl) phenyl)ureido)benzenesulfonamide [Compound 31c]	0.0815 ± 0.0055	0.0137 ± 0.0012

Source: PMC9154761, “Development of Praziquantel sulphonamide derivatives as antischistosomal drugs” (Journal of Enzyme Inhibition and Medicinal Chemistry, 2022)
